For one substance, pH results are on record in patent US8419820B2, “Fast dissolving water-soluble fertilizer formulations and methods and uses thereof” (Everris International B.V., priority 2009, dated 2013).

Only a part of the results on these compounds is given; other tests are left out.

The data set in a line: pH of a 1% solution of fertilizer components in water. The format is physicochemical. As to conditions: 1% solution in water at room temperature.

As to Ammonium Nitrate, the pH worked out at 6.
